Source: ChEMBL document CHEMBL5579880, “Rational Design of a Novel 6H-Benzo[c]chromen Series as Selective PI3Kα Inhibitors” (J Med Chem, 2024)

By UniProt entry, the sequences of proteins in these tests, tags left out.
UniProt P11309, whole entry, looked up: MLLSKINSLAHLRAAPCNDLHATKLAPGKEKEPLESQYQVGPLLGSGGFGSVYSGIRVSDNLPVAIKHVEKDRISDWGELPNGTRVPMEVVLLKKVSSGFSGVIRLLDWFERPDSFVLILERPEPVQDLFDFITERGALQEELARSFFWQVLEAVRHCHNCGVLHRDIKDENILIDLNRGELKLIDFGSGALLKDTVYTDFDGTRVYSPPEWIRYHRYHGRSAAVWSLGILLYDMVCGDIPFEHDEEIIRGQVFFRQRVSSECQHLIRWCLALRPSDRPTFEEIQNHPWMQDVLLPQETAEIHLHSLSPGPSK

Assays:
[1] = target: Serine/threonine-protein kinase mTOR (Homo sapiens) (UniProt P42345); experiment: Inhibition of mTOR (unknown origin) at 1 uM relative to control
[2] = target: Serine/threonine-protein kinase pim-1 (Homo sapiens) (UniProt P11309); experiment: Inhibition of PIM1 (unknown origin) at 1 uM relative to control

inhibition [1]: 61%
inhibition [2]: 79%
Structure (SMILES): CCNc1cc(-c2ccc3c(c2)-c2ccc(O[C@@H](C)C(N)=O)cc2OC3)ncn1
